Test: Chemical stability of everolimus derivatives (hydrolytic cleavage / elimination)
Format: physicochemical
Description: The oxime derivate (activated ester) would be a desirable candidate in various assays, including latex enhanced immunoturbidimetric assays.
RAD-822 may be used in various embodiments of the present invention. This compound is used herein in an illustrative FPIA embodiment with an ester modified linker at position 28. […] Thus, RAD 822 is not optimal for other embodiments requiring vigorous heat stressing conditions, such as QMS® technology (Seradyn, Indianapolis, Ind.).

Substance: Everolimus-O-carboxymethyl-32-oxime [oxime derivative (position 32)]
- chemical stability: will not undergo an elimination reaction in most useful conditions

Reference: patent US7223553B2, “Immunoassays for everolimus” (priority 2004, dated 2007)
